Reference: patent US20050181450A1 (published 2005)

Target: T1, IRBIT (IP3R-binding protein released with inositol 1,4,5-trisphosphate) in the high salt extract of mouse … (mouse, UniProt Q80SW1)
T1 construct: Endogenous protein extracted with 500 mM NaCl from crude microsome of mouse cerebellum, not purified; sites not determined; also called IRBIT in the high salt extract
Assay: GST pulldown from the high salt extract, Western blot with anti-IRBIT antibody
Description: FIG. 9A is the schematic representation of the structure of mouse IP₃R1 and the recombinant GST fusion proteins used in this study. The IP₃ binding core region is indicated with a gray box. Putative membrane-spanning regions are indicated with solid vertical bars. Roman numbers I to V indicate the domain structure of IP₃R1 determined by the limited trypsin digestion (51). Numbers above the bars represent corresponding amino acid residue numbers. […] The high salt extract of crude microsome obtained from mouse cerebella was incubated with GST fusion proteins shown in (A). Bound proteins were pulled down with glutathione-Sepharose, eluted with glutathione, and analyzed by Western blotting using anti-IRBIT antibody. […] Bound proteins were pulled down with glutathione-Sepharose, eluted with glutathione, and then analyzed by Western blotting using anti-IRBIT antibody (upper panel). GST fusion proteins pulled down with glutathione-Sepharose were stained with Coomassie Brilliant Blue (lower panel).
For the determination of the IRBIT binding region and the critical amino acid residue of IP₃R1, the diluted high salt extract was subjected to pulldown assay as described above with 100 pmol of GST, GST-EL, GST-Ia, GST-Iab, GST-IbIIa, GST-IIab, GST-IIbIIIa, GST-IIIab, GST-IV, GST-IV-Va, K508A or R441Q, and analyzed by Western blotting with anti-IRBIT antibody.

B1: GST (glutathione S-transferase alone, control) (other, UniProt P08515 1-218, looked up)
chain: MSPILGYWKIKGLVQPTRLLLEYLEEKYEEHLYERDEGDKWRNKKFELGLEFPNLPYYIDGDVKLTQSMAIIRYIADKHNMLGGCPKERAEISMLEGAVLDIRYGVSRIAYSKDFETLKVDFLSKLPEMLKMFEDRLCHKTYLNGDHVTHPDFMLYDALDVVLYMDPMCLDAFPKLVCFKKRIEAIPQIDKYLKSSKYIAWPLQGWQATFGGGDHPPK
notes: Control for GST-EL
B1: no binding (tested: 100 pmol GST).
